Assay: Adsorption of Nipastat paraben components from hydrogel by gel retaining layer, HPLC of gel extract
Format: physicochemical
Conditions: Gel + GRL, 9 Days at 4° C., individual samples 1-5
Method: Nipastat®-containing hydrogels were formulated with the appropriate buffer salts under standard conditions, from which samples were taken for analysis. […] The hydrogels were cut using a ¾ inch punch to generate the sample disks to assay. Each disk was added to 5 mL of acetonitrile/water (30% ACN, v/v) and the Nipastat® biocide was extracted for 1 hour while shaking on an orbital shaker at 100 rpm. The extract was then filtered through a 0.2 μm membrane prior to HPLC separation and UV detection at 254 nm.
Reverse phase HPLC chromatography was performed using a Waters 3.9 mm×15 cm Nova-Pak C-18 column (Milford, Mass.) operating at a flow rate of between about 1.0 to 2.0 mL/min. at 35° C. The eluent was monitored by UV at 254 nm using a Shimadzu SPD-10AU UV-Visible spectrometer (Kyoto, Japan). Samples 10 μL in volume were injected into the column equilibrated in 30% ACN in water, and the following 20-minute gradient program was performed: • 1. Initial time of injection: 30% ACN/70% water at a flow rate of 1 mL/min • 2. Linear Gradient from 30% ACN to 80% ACN for 9.0 minutes (1 mL/min) • 3. Linear Gradient from 80% ACN to 100% ACN for 0.5 minutes (1 mL/min) • 4. 100% ACN for 4.5 minutes (1 mL/min) • 5. Linear Gradient from 100% ACN to 30% ACN for 0.5 minutes at a flow rate of 2 mL/min • 6.30% ACN for 5.5 minutes at a flow rate of 1 mL/min […]

HPLC peak intensity of paraben extracted from hydrogel: 12662
Compound: CCCOC(=O)c1ccc(O)cc1 [Propyl, p-hydroxybenzoic acid propyl ester]

From patent US7183068B2, “Methods of manufacturing glucose measuring assemblies with hydrogels” (Animas Technologies, LLC, priority 1999, dated 2007)
